The source of these data is patent publication US11779548B2, “Arylfluorosulfate compounds and methods” (THE SCRIPPS RESEARCH INSTITUTE, priority 2014, dated 2023).

A short description of this data set: in vivo. The following applies: female, C57BL/6, mouse, 8.3 mg/kg, female C57BL/6 mice, plasma.

One may read the half-life as the time in which the quantity being followed falls by half. High values mean slow decline, low ones rapid decline. Turning to `C[C@]12CC[C@@H]3c4ccc(OS(=O)(=O)F)cc4C[C@@H](CCCCCCCCC[S+]([O-])CCCC(F)(F)C(F)(F)F)[C@H]3[C@@H]1CC[C@@H]2O` (stereo partly drawn) [11F, (7R,8R,9S,13S,14S,17S)-17-Hydroxy-13-methyl-7-(9-((4,4,5,5,5-pentafluoropentyl)sulfinyl)nonyl)-7,8,9,11,12,13,14,15,16,17-decahydro-6H-cyclopenta[a]phenanthren-3-yl sulfurofluoridate], the half-life by setting is: (po, T1/2, P.O. 8.3 mg/kg) around 4 h; (sc, T1/2, S.C. 8.3 mg/kg) 9.51 h.
